In series [1] the target is T1, Peptide 11: DEAIYATVAGGKKK (version of peptide 5 used for the kinetic experiments).
T1 chain: DEAIYATVAGGKKK

For series [2], the target named is T2, Peptide 10: EDPIYVTLEGGKKK (version of peptide 2 used for the kinetic experiments).
T2 chain: EDPIYVTLEGGKKK

B1: His6-EGFR 672-998 (protein)
chain: HHHHHHGEAPNQALLRILKETEFKKIKVLGSGAFGTVYKGLWIPEGEKVKIPVAIKELREATSPKANKEILDEAYVMASVDNPHVCRLLGICLTSTVQLITQLMPFGCLLDYVREHKDNIGSQYLLNWCVQIAKGMNYLEDRRLVHRDLAARNVLVKTPQHVKITDFGLAKLLGAEEKEYHAEGGKVPIKWMALESILHRIYTHQSDVWSYGVTVWELMTFGSKPYDGIPASEISSILEKGERLPQPPICTIDVYMIMVKCWMIDADSRPKFRELIIEFSKMARDPQRYLVIQGDERMHLPSPTDSNFYRALMDEEDMDDVVDADEYLIPQQG
A word on the Km: it is the substrate concentration at which the rate is half of its maximum. By kcat is commonly meant the number of substrate molecules converted per active site and unit of time at saturation. The kcat/Km is the second-order rate constant that governs catalysis at low substrate concentration. Turning to B1, in series [1], the Michaelis constant (Km) is > 200 µM, the turnover number (kcat) is > 0.001 s⁻¹ and the specificity constant (kcat/Km) is 5 s⁻¹ M⁻¹. Further, in series [2], the 2/5 kcat/Km ratio (peptide 2 against peptide 5) was found to be 5.8, the Km was > 200 µM, the kcat is > 0.005 s⁻¹ and the catalytic efficiency (kcat/Km) amounted to 26 s⁻¹ M⁻¹.

Values taken from US20190302117.
